Data taken from ChEMBL document CHEMBL2311513, “Fragment growing and linking lead to novel nanomolar lactate dehydrogenase inhibitors” (J Med Chem, 2013).

Molecular target: L-lactate dehydrogenase A chain (Homo sapiens, UniProt P00338)
Test: Inhibition of human LDH-A

Ki: 26 µM
SMILES: NC(=O)C(=O)O [OXAMATE]
